## Antibody variant affinities, Ab-95 light chain, assay 2

From the AlphaSeq antibody data of Engelhart et al. 2022 (doi:10.1038/s41597-022-01779-4), copy in the FLAb collection.

Antigen: PDVDLGDISGINAS, a 14-residue peptide of the SARS-CoV-2 spike HR2 region.

Each scFv is VH, a 15-residue (Gly4Ser)3 linker, VL, as in the parent Ab-95, and differs from it in the CDRs of the light chain only.
VH: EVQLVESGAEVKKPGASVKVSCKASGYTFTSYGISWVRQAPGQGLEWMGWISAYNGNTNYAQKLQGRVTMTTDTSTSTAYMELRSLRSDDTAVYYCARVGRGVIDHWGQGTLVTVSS
VL: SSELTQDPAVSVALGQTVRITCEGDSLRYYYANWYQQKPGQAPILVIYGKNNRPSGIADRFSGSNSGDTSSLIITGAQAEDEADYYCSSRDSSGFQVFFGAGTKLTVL

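The starting antibody came from a phage panning campaign against this peptide. Library AAYL52 holds single substitutions and randomly drawn double and triple substitutions in the CDRs. The assay is AlphaSeq: two haploid yeast populations carry antibody and antigen on their surface. After mating in shaken culture at 30 °C for 16 h, diploids were selected and their barcode pairs sequenced. A regression on co-assayed BCL2-family reference pairs converts the normalised counts of each replicate to an apparent Kd. The assay was run in three technical replicates.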

Substitutions are numbered in sequence along the VL above, starting at 1 (not Kabat).
All variants listed here change Q96 of the VL, counted from its first residue.
Affinities are written as log10 Kd with Kd in nM; a lower number is a better binder.
A mean of the replicates is given; it leaves out those without a signal.
"nd" means that the variant was in the library but no mating with the target was seen in any replicate; the authors take this as a sign of poor binding, and no number exists.

Variant N33T/R90Y/Q96T showed nd (0 of 3 replicates; controls 4 of 9).
Variant G24L/Q96V/V97Q showed 3.82 (1 of 3 replicates; controls 4 of 9).
Variant L27M/S89Q/Q96F showed 2.45 (1 of 3 replicates; controls 0 of 9).
Variant G24C/Q96G showed 3.28 (3 of 3 replicates; controls 6 of 9).
Variant G24P/Q96Y/F98R showed 4.57 (3 of 3 replicates; controls 4 of 9).
Variant N33Y/S55V/Q96D showed 4.66 (2 of 3 replicates; controls 3 of 9).
Variant Y30C/S55D/Q96K showed 2.53 (3 of 3 replicates; controls 1 of 9).
Variant F95I/Q96S/V97C showed 3.14 (3 of 3 replicates; controls 6 of 9).
Variant S55F/S89Y/Q96V showed nd (0 of 3 replicates; controls 1 of 9).
Variant S55W/Q96T/F98D showed 3.63 (3 of 3 replicates; controls 4 of 9).
Variant A32H/S92F/Q96N showed 3.39 (2 of 3 replicates; controls 2 of 9).
Variant Y30S/D91C/Q96C showed 1.28 (3 of 3 replicates; controls 5 of 9).
Variant E23Q/A32F/Q96S showed 3.58 (3 of 3 replicates; controls 4 of 9).
Variant G49E/S93T/Q96E showed 4.17 (2 of 3 replicates; controls 0 of 9).
Variant N52G/S88Y/Q96W showed 2.42 (3 of 3 replicates; controls 4 of 9).
Variant R53D/Q96C/F98S showed 4.99 (2 of 3 replicates; controls 2 of 9).
Variant G24V/A32W/Q96Y showed nd (0 of 3 replicates; controls 0 of 9).
Variant Y29W/P54A/Q96E showed 3.95 (2 of 3 replicates; controls 3 of 9).
Variant G24W/P54C/Q96Y showed 4.06 (1 of 3 replicates; controls 1 of 9).
Variant D25P/G94C/Q96W showed 3.73 (3 of 3 replicates; controls 1 of 9).
Variant Q96E/V97F/F98H showed 3.40 (2 of 3 replicates; controls 2 of 9).
Variant D25L/L27T/Q96C showed 4.12 (3 of 3 replicates; controls 4 of 9).
Variant S55W/S92A/Q96N showed 2.39 (3 of 3 replicates; controls 0 of 9).
Variant E23W/Q96W showed 3.34 (2 of 3 replicates; controls 3 of 9).
Variant R28Y/N33S/Q96A showed 2.46 (3 of 3 replicates; controls 0 of 9).
Variant E23L/S93Q/Q96P showed 3.35 (3 of 3 replicates; controls 2 of 9).
Variant N33W/Q96S showed 4.44 (1 of 3 replicates; controls 2 of 9).
Variant E23G/Q96I showed nd (0 of 3 replicates; controls 0 of 9).
Variant G49Y/S55N/Q96F showed 3.91 (1 of 3 replicates; controls 2 of 9).
Variant S89A/Q96R/F98D showed 3.25 (3 of 3 replicates; controls 3 of 9).
Variant Y30C/Q96P/F98P showed 3.34 (3 of 3 replicates; controls 6 of 9).
Variant Y29V/S55T/Q96P showed 4.90 (1 of 3 replicates; controls 2 of 9).
Variant S88W/G94E/Q96K showed 3.28 (3 of 3 replicates; controls 5 of 9).
Variant G24P/Q96G/V97R showed 4.37 (2 of 3 replicates; controls 6 of 9).
Variant S89F/Q96S showed 2.14 (3 of 3 replicates; controls 4 of 9).
Variant L27I/S89M/Q96E showed 4.92 (2 of 3 replicates; controls 5 of 9).
Variant R53Q/Q96P/V97W showed 3.34 (3 of 3 replicates; controls 4 of 9).
Variant L27G/N52F/Q96S showed 4.22 (2 of 3 replicates; controls 4 of 9).
Variant Y30T/Q96M/F98D showed 1.66 (3 of 3 replicates; controls 2 of 9).
Variant G24L/S55G/Q96C showed 3.24 (1 of 3 replicates; controls 2 of 9).
Variant S26E/Q96L showed 3.78 (2 of 3 replicates; controls 1 of 9).
Variant S55P/G94L/Q96C showed 4.38 (1 of 3 replicates; controls 1 of 9).
Variant Y30C/S88R/Q96G showed 3.37 (3 of 3 replicates; controls 3 of 9).
Variant E23H/Q96N/F98L showed 3.26 (3 of 3 replicates; controls 3 of 9).
Variant N52K/Q96Y/F98L showed 5.45 (1 of 3 replicates; controls 4 of 9).
Variant G24A/L27S/Q96H showed 3.38 (3 of 3 replicates; controls 6 of 9).
Variant N52Q/Q96D/V97C showed 3.06 (2 of 3 replicates; controls 3 of 9).
Variant R28A/S93Y/Q96V showed 4.03 (3 of 3 replicates; controls 3 of 9).

Again, the first 4 entries without any signal:

changes	log10 Kd (nM), mean	detected	signal with controls
N33T/R90Y/Q96T	nd	0/3	4/9
S55F/S89Y/Q96V	nd	0/3	1/9
G24V/A32W/Q96Y	nd	0/3	0/9
E23G/Q96I	nd	0/3	0/9

Empty control strains, which show no peptide, gave a signal in 28% of pairings with library AAYL52; the median was 3.91 and 95% of these signals were weaker than 2.90. No background was subtracted. For each scFv, signals with the empty controls are counted beside the result.